Columns and labels:
E. coli = experiment: FDAA/CDAA labeling of E. coli, fluorescence microscopy; type: cell-based, Escherichia coli; details: incubation with FDAA or CDAA (CDAA captured by azido/alkyne fluorophores)
B. subtilis = experiment: FDAA/CDAA labeling of B. subtilis, fluorescence microscopy; type: cell-based, Bacillus subtilis; details: incubation with FDAA or CDAA (CDAA captured by azido/alkyne fluorophores)

SMILES: C[C@@H](NN=[N+]=[N-])C(=O)O
- Labeling of E. coli (E. coli): labeled both E. coli and B. subtilis
- Labeling of B. subtilis (B. subtilis): labeled both E. coli and B. subtilis

Reference: patent US20160222430A1, “D-ALA-D-ALA-BASED DIPEPTIDES AS TOOLS FOR IMAGING PEPTIDOGLYCAN BIOSYNTHESIS” (INDIANA UNIVERSITY RESEARCH AND TECHNOLOGY CORPORATION, priority 2013, published 2016)
